Target: Cytosol aminopeptidase (Homo sapiens, UniProt P28838)
Test: Inhibition of proline iminopeptidase)

Sequences of proteins named here, by UniProt entry; tags and fusion partners are left off. A change or cut given only in a name is not applied to a line headed by its entry.
UniProt P28838: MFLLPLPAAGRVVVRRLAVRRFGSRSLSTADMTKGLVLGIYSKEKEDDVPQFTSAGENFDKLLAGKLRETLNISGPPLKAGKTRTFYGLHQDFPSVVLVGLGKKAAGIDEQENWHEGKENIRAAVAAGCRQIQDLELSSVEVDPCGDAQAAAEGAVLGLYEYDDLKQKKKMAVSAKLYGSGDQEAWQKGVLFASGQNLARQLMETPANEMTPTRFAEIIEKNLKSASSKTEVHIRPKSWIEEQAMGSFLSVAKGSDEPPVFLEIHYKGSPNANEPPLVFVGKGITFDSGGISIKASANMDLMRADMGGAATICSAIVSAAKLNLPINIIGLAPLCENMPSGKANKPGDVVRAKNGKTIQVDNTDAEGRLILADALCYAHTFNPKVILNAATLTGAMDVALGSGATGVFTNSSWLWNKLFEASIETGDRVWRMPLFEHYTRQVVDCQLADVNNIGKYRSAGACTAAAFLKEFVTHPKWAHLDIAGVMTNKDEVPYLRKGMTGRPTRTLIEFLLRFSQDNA

IC50: > 100 µM
SMILES: O=C(CO)[C@@H]1CCCN1C(=O)[C@@H]1CCCN1C(=O)NCc1ccccc1
